# Laboratory results: patent US7094557B2, “2-Methyl-3-butenyl-1-pyrophosphoric acid salt and agent for treating lymphocytes” (Chugai Seiyaku Kabushiki Kaisha, priority 1999, dated 2006)
# System: human Vγ2Vδ2 type T cells
# Assay: Proliferation of Vγ2Vδ2 type T cells in treated peripheral blood mononuclear cells (ratio in CD3 cells)
# Format: cell-based
# Conditions: interleukin-2 10 U/ml solely (comparative treatment), day 11, volunteer G
# Procedure: After 12 days, the cells were collected.
# 10 ml of the peripheral blood collected from a healthy volunteer G was subjected to Ficoll-Paque specific gravity centrifugation to purify the peripheral blood mononuclear cells and they were suspended in a Yssel's medium. The cells were apportioned into a 24-hole plate so that the number of the cells becomes a concentration of 2.5 million/1.5 ml/hole, and then, according to the above-mentioned method, treatments 1 to 5 were conducted as shown in Table 1. Among them, treatment 1 is a treatment using only a culture medium and treatment 2 solely uses interleukin-2, and both treatments are for comparison. […] On the day 11 after conducting the treatment, a ratio of Vγ2Vδ2 type T cells in existing CD3 cells was calculated.
substance,measurement,value
Interleukin-2: cofactor added at 10 U/ml; used solely in comparative treatment 2,Vγ2Vδ2 type T cells/CD3 cells,6.9%
